The chains behind the UniProt entries cited, without tags or fusion partners.
UniProt P10415, whole entry: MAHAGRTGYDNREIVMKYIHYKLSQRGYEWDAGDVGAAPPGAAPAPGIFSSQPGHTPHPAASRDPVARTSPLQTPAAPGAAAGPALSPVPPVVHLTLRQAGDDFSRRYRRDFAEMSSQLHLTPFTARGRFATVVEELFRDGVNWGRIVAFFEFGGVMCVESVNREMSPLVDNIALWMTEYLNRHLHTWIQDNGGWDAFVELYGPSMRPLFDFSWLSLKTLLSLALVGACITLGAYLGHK

According to patent publication US20190257816A1, “DIFFERENTIAL BH3 MITOCHONDRIAL PROFILING” (Eutropics Pharmaceuticals, Inc., priority 2013, published 2019):

Molecular target: BCL-2 (Homo sapiens, UniProt P10415)
Assay: BH3 domain binding affinities to BCL-2

Kd: 0.02 nM
Compound: CC1(C)CCC(c2ccc(Cl)cc2)=C(CN2CCN(c3ccc(C(=O)NS(=O)(=O)c4ccc(N[C@H](CCN5CCOCC5)CSc5ccccc5)c(S(=O)(=O)C(F)(F)F)c4)cc3)CC2)C1 [ABT-263, Navitoclax]
